Tests used:
[1] = pH-dependence of FTH ferritin structure by DLS; assay type: physicochemical
Method: In order to investigate a pH-dependent change of the cage structure of ferritin, FTH ferritin was suspended in each of solutions with different pHs to achieve a final concentration of 1 mg/mL, and then the resulting solutions were left to stand at 25° C. for 30 minutes. Then, the size of ferritin was measured by the dynamic light scattering (DLS) method using Zetasizer Nano ZS for each pH. The measurement was carried out at 25° C. The used solutions were 0.1 N HCl (pH 1.7), 20 mM phosphoric acid (pH 2.6, pH 3.2, pH 5.6, pH 6.7 and pH 7.7), 20 mM acetic acid (pH 4.2, pH 4.9 and pH 5.3), 1 mM NaOH (pH 11.1), 10 mM NaOH (pH 12.3) and 100 mM NaOH (pH 12.8). pH adjustment was carried out for the solutions ranging from pH 2.0 to pH 2.4 by adding HCl to 10 mM Tris-HCl solution.

[2] = cited from earlier work

Compound | average particle diameter determined by DLS ([1]; pH 1.7 to pH 2.4, 25° C.) [nm] | average particle diameter determined by DLS ([1]; pH 2.6 to pH 12.8, 25° C.) [nm] | logP [2]
FTH ferritin: ferritin formed of human-derived ferritin H chain (SEQ ID NO: 1) monomers | ≤ 8 | ≥ 11 | –
Cc1cc2nc3c(=O)[nH]c(=O)nc-3n(C[C@H](O)[C@H](O)[C@H](O)CO)c2cc1C [Riboflavin] | – | – | −1.46
